# Source: ChEMBL document CHEMBL4325833, “Discovery of a Potent, Selective, and Brain-Penetrant Small Molecule that Activates the Orphan Receptor GPR88 and Reduces Alcohol Intake” (J Med Chem, 2018)
# Test: Thermodynamic solubility of the compound at pH 7.4 after 24 hrs by LC-MS/MS analysis
# Format: physicochemical
# Conditions: buffer, pH 7.4, 24 h
smiles,measurement,value
CCCc1ccc(-c2ccc(N(C[C@@H](N)[C@@H](C)CC)C(=O)[C@@H]3C[C@H]3c3ccccn3)cc2)cc1,Therm_solubility,46.1 µg/mL
